The values that follow are results of earlier work, collected in patent US4582827A, “Pesticidal diphenylaziridines” (priority 1983, dated 1986).

In the series the test system is mammals. As to conditions: cited from earlier work.

In the case of `C1CN1`, the “toxicity reported in the literature” value is “highly toxic and hazardous”.
